Assay results reported in IntAct's records for PubMed 35512704.

B1: RAC-alpha serine/threonine-protein kinase (Homo sapiens), P31749 (parent)
chain: MSDVAIVKEGWLHKRGEYIKTWRPRYFLLKNDGTFIGYKERPQDVDQREAPLNNFSVAQCQLMKTERPRPNTFIIRCLQWTTVIERTFHVETPEEREEWTTAIQTVADGLKKQEEEEMDFRSGSPSDNSGAEEMEVSLAKPKHRVTMNEFEYLKLLGKGTFGKVILVKEKATGRYYAMKILKKEVIVAKDEVAHTLTENRVLQNSRHPFLTALKYSFQTHDRLCFVMEYANGGELFFHLSRERVFSEDRARFYGAEIVSALDYLHSEKNVVYRDLKLENLMLDKDGHIKITDFGLCKEGIKDGATMKTFCGTPEYLAPEVLEDNDYGRAVDWWGLGVVMYEMMCGRLPFYNQDHEKLFELILMEEIRFPRTLGPEAKSLLSGLLKKDPKQRLGGGSEDAKEIMQHRFFAGIVWQHVYEKKLSPPFKPQVTSETDTRYFDEEFTAQMITITPPDQDDSMECVDSERRPHFPQFSYSASGTA

Variants of: B1
Settings: with aapk2_human PRKAA2, P54646

| Variant | effect of a mutation on the interaction |
| --- | --- |
| MSDVAIVKEGWLHKRGKYIKTWRPRYFLLKNDGTFIGYKERPQDVDQREAPLNNFSVAQCQLMKTERPRPNTFIIRCLQWTTVIERTFHVETPEEREEWTTAIQTVADGLKKQEEEEMDFRSGSPSDNSGAEEMEVSLAKPKHRVTMNEFEYLKLLGKGTFGKVILVKEKATGRYYAMKILKKEVIVAKDEVAHTLTENRVLQNSRHPFLTALKYSFQTHDRLCFVMEYANGGELFFHLSRERVFSEDRARFYGAEIVSALDYLHSEKNVVYRDLKLENLMLDKDGHIKITDFGLCKEGIKDGATMKTFCGTPEYLAPEVLEDNDYGRAVDWWGLGVVMYEMMCGRLPFYNQDHEKLFELILMEEIRFPRTLGPEAKSLLSGLLKKDPKQRLGGGSEDAKEIMQHRFFAGIVWQHVYEKKLSPPFKPQVTSETDTRYFDEEFTAQMITITPPDQDDSMECVDSERRPHFPQFSYSASGTA [E17K] | increasing interaction strength |

Variants of: B1
Settings: with rictr_human RICTOR

| Variant | effect of a mutation on the interaction |
| --- | --- |
| MSDVAIVKEGWLHKRGKYIKTWRPRYFLLKNDGTFIGYKERPQDVDQREAPLNNFSVAQCQLMKTERPRPNTFIIRCLQWTTVIERTFHVETPEEREEWTTAIQTVADGLKKQEEEEMDFRSGSPSDNSGAEEMEVSLAKPKHRVTMNEFEYLKLLGKGTFGKVILVKEKATGRYYAMKILKKEVIVAKDEVAHTLTENRVLQNSRHPFLTALKYSFQTHDRLCFVMEYANGGELFFHLSRERVFSEDRARFYGAEIVSALDYLHSEKNVVYRDLKLENLMLDKDGHIKITDFGLCKEGIKDGATMKTFCGTPEYLAPEVLEDNDYGRAVDWWGLGVVMYEMMCGRLPFYNQDHEKLFELILMEEIRFPRTLGPEAKSLLSGLLKKDPKQRLGGGSEDAKEIMQHRFFAGIVWQHVYEKKLSPPFKPQVTSETDTRYFDEEFTAQMITITPPDQDDSMECVDSERRPHFPQFSYSASGTA [E17K] | increasing interaction strength |

Variants of: B1
Settings: with rl11_human RPL11

| Variant | effect of a mutation on the interaction |
| --- | --- |
| MSDVAIVKEGWLHKRGKYIKTWRPRYFLLKNDGTFIGYKERPQDVDQREAPLNNFSVAQCQLMKTERPRPNTFIIRCLQWTTVIERTFHVETPEEREEWTTAIQTVADGLKKQEEEEMDFRSGSPSDNSGAEEMEVSLAKPKHRVTMNEFEYLKLLGKGTFGKVILVKEKATGRYYAMKILKKEVIVAKDEVAHTLTENRVLQNSRHPFLTALKYSFQTHDRLCFVMEYANGGELFFHLSRERVFSEDRARFYGAEIVSALDYLHSEKNVVYRDLKLENLMLDKDGHIKITDFGLCKEGIKDGATMKTFCGTPEYLAPEVLEDNDYGRAVDWWGLGVVMYEMMCGRLPFYNQDHEKLFELILMEEIRFPRTLGPEAKSLLSGLLKKDPKQRLGGGSEDAKEIMQHRFFAGIVWQHVYEKKLSPPFKPQVTSETDTRYFDEEFTAQMITITPPDQDDSMECVDSERRPHFPQFSYSASGTA [E17K] | increasing interaction strength |

Variants of: B1
Settings: with rl5_human RPL5

| Variant | effect of a mutation on the interaction |
| --- | --- |
| MSDVAIVKEGWLHKRGKYIKTWRPRYFLLKNDGTFIGYKERPQDVDQREAPLNNFSVAQCQLMKTERPRPNTFIIRCLQWTTVIERTFHVETPEEREEWTTAIQTVADGLKKQEEEEMDFRSGSPSDNSGAEEMEVSLAKPKHRVTMNEFEYLKLLGKGTFGKVILVKEKATGRYYAMKILKKEVIVAKDEVAHTLTENRVLQNSRHPFLTALKYSFQTHDRLCFVMEYANGGELFFHLSRERVFSEDRARFYGAEIVSALDYLHSEKNVVYRDLKLENLMLDKDGHIKITDFGLCKEGIKDGATMKTFCGTPEYLAPEVLEDNDYGRAVDWWGLGVVMYEMMCGRLPFYNQDHEKLFELILMEEIRFPRTLGPEAKSLLSGLLKKDPKQRLGGGSEDAKEIMQHRFFAGIVWQHVYEKKLSPPFKPQVTSETDTRYFDEEFTAQMITITPPDQDDSMECVDSERRPHFPQFSYSASGTA [E17K] | increasing interaction strength |

Variants of: B1
Settings: with sdha_human SDHA

| Variant | effect of a mutation on the interaction |
| --- | --- |
| MSDVAIVKEGWLHKRGKYIKTWRPRYFLLKNDGTFIGYKERPQDVDQREAPLNNFSVAQCQLMKTERPRPNTFIIRCLQWTTVIERTFHVETPEEREEWTTAIQTVADGLKKQEEEEMDFRSGSPSDNSGAEEMEVSLAKPKHRVTMNEFEYLKLLGKGTFGKVILVKEKATGRYYAMKILKKEVIVAKDEVAHTLTENRVLQNSRHPFLTALKYSFQTHDRLCFVMEYANGGELFFHLSRERVFSEDRARFYGAEIVSALDYLHSEKNVVYRDLKLENLMLDKDGHIKITDFGLCKEGIKDGATMKTFCGTPEYLAPEVLEDNDYGRAVDWWGLGVVMYEMMCGRLPFYNQDHEKLFELILMEEIRFPRTLGPEAKSLLSGLLKKDPKQRLGGGSEDAKEIMQHRFFAGIVWQHVYEKKLSPPFKPQVTSETDTRYFDEEFTAQMITITPPDQDDSMECVDSERRPHFPQFSYSASGTA [E17K] | increasing interaction strength |

Variants of: B1
Settings: with sin1_human MAPKAP1, Q9BPZ7

| Variant | effect of a mutation on the interaction |
| --- | --- |
| MSDVAIVKEGWLHKRGKYIKTWRPRYFLLKNDGTFIGYKERPQDVDQREAPLNNFSVAQCQLMKTERPRPNTFIIRCLQWTTVIERTFHVETPEEREEWTTAIQTVADGLKKQEEEEMDFRSGSPSDNSGAEEMEVSLAKPKHRVTMNEFEYLKLLGKGTFGKVILVKEKATGRYYAMKILKKEVIVAKDEVAHTLTENRVLQNSRHPFLTALKYSFQTHDRLCFVMEYANGGELFFHLSRERVFSEDRARFYGAEIVSALDYLHSEKNVVYRDLKLENLMLDKDGHIKITDFGLCKEGIKDGATMKTFCGTPEYLAPEVLEDNDYGRAVDWWGLGVVMYEMMCGRLPFYNQDHEKLFELILMEEIRFPRTLGPEAKSLLSGLLKKDPKQRLGGGSEDAKEIMQHRFFAGIVWQHVYEKKLSPPFKPQVTSETDTRYFDEEFTAQMITITPPDQDDSMECVDSERRPHFPQFSYSASGTA [E17K] | increasing interaction strength |

Variants of: B1
Settings: with skp2_human SKP2

| Variant | effect of a mutation on the interaction |
| --- | --- |
| MSDVAIVKEGWLHKRGKYIKTWRPRYFLLKNDGTFIGYKERPQDVDQREAPLNNFSVAQCQLMKTERPRPNTFIIRCLQWTTVIERTFHVETPEEREEWTTAIQTVADGLKKQEEEEMDFRSGSPSDNSGAEEMEVSLAKPKHRVTMNEFEYLKLLGKGTFGKVILVKEKATGRYYAMKILKKEVIVAKDEVAHTLTENRVLQNSRHPFLTALKYSFQTHDRLCFVMEYANGGELFFHLSRERVFSEDRARFYGAEIVSALDYLHSEKNVVYRDLKLENLMLDKDGHIKITDFGLCKEGIKDGATMKTFCGTPEYLAPEVLEDNDYGRAVDWWGLGVVMYEMMCGRLPFYNQDHEKLFELILMEEIRFPRTLGPEAKSLLSGLLKKDPKQRLGGGSEDAKEIMQHRFFAGIVWQHVYEKKLSPPFKPQVTSETDTRYFDEEFTAQMITITPPDQDDSMECVDSERRPHFPQFSYSASGTA [E17K] | increasing interaction strength |

Variants of: B1
Settings: with smuf1_human SMURF1, Q9HCE7

| Variant | effect of a mutation on the interaction |
| --- | --- |
| MSDVAIVKEGWLHKRGKYIKTWRPRYFLLKNDGTFIGYKERPQDVDQREAPLNNFSVAQCQLMKTERPRPNTFIIRCLQWTTVIERTFHVETPEEREEWTTAIQTVADGLKKQEEEEMDFRSGSPSDNSGAEEMEVSLAKPKHRVTMNEFEYLKLLGKGTFGKVILVKEKATGRYYAMKILKKEVIVAKDEVAHTLTENRVLQNSRHPFLTALKYSFQTHDRLCFVMEYANGGELFFHLSRERVFSEDRARFYGAEIVSALDYLHSEKNVVYRDLKLENLMLDKDGHIKITDFGLCKEGIKDGATMKTFCGTPEYLAPEVLEDNDYGRAVDWWGLGVVMYEMMCGRLPFYNQDHEKLFELILMEEIRFPRTLGPEAKSLLSGLLKKDPKQRLGGGSEDAKEIMQHRFFAGIVWQHVYEKKLSPPFKPQVTSETDTRYFDEEFTAQMITITPPDQDDSMECVDSERRPHFPQFSYSASGTA [E17K] | increasing interaction strength |

Variants of: B1
Settings: with tnr14_human TNFRSF14, Q92956

| Variant | effect of a mutation on the interaction |
| --- | --- |
| MSDVAIVKEGWLHKRGKYIKTWRPRYFLLKNDGTFIGYKERPQDVDQREAPLNNFSVAQCQLMKTERPRPNTFIIRCLQWTTVIERTFHVETPEEREEWTTAIQTVADGLKKQEEEEMDFRSGSPSDNSGAEEMEVSLAKPKHRVTMNEFEYLKLLGKGTFGKVILVKEKATGRYYAMKILKKEVIVAKDEVAHTLTENRVLQNSRHPFLTALKYSFQTHDRLCFVMEYANGGELFFHLSRERVFSEDRARFYGAEIVSALDYLHSEKNVVYRDLKLENLMLDKDGHIKITDFGLCKEGIKDGATMKTFCGTPEYLAPEVLEDNDYGRAVDWWGLGVVMYEMMCGRLPFYNQDHEKLFELILMEEIRFPRTLGPEAKSLLSGLLKKDPKQRLGGGSEDAKEIMQHRFFAGIVWQHVYEKKLSPPFKPQVTSETDTRYFDEEFTAQMITITPPDQDDSMECVDSERRPHFPQFSYSASGTA [E17K] | increasing interaction strength |

Variants of: B1
Settings: with tsc2_human TSC2, P49815

| Variant | effect of a mutation on the interaction |
| --- | --- |
| MSDVAIVKEGWLHKRGKYIKTWRPRYFLLKNDGTFIGYKERPQDVDQREAPLNNFSVAQCQLMKTERPRPNTFIIRCLQWTTVIERTFHVETPEEREEWTTAIQTVADGLKKQEEEEMDFRSGSPSDNSGAEEMEVSLAKPKHRVTMNEFEYLKLLGKGTFGKVILVKEKATGRYYAMKILKKEVIVAKDEVAHTLTENRVLQNSRHPFLTALKYSFQTHDRLCFVMEYANGGELFFHLSRERVFSEDRARFYGAEIVSALDYLHSEKNVVYRDLKLENLMLDKDGHIKITDFGLCKEGIKDGATMKTFCGTPEYLAPEVLEDNDYGRAVDWWGLGVVMYEMMCGRLPFYNQDHEKLFELILMEEIRFPRTLGPEAKSLLSGLLKKDPKQRLGGGSEDAKEIMQHRFFAGIVWQHVYEKKLSPPFKPQVTSETDTRYFDEEFTAQMITITPPDQDDSMECVDSERRPHFPQFSYSASGTA [E17K] | increasing interaction strength |

Variants of: B1
Settings: with pk3cb_human PIK3CB

| Variant | effect of a mutation on the interaction |
| --- | --- |
| MSDVAIVKEGWLHKRGKYIKTWRPRYFLLKNDGTFIGYKERPQDVDQREAPLNNFSVAQCQLMKTERPRPNTFIIRCLQWTTVIERTFHVETPEEREEWTTAIQTVADGLKKQEEEEMDFRSGSPSDNSGAEEMEVSLAKPKHRVTMNEFEYLKLLGKGTFGKVILVKEKATGRYYAMKILKKEVIVAKDEVAHTLTENRVLQNSRHPFLTALKYSFQTHDRLCFVMEYANGGELFFHLSRERVFSEDRARFYGAEIVSALDYLHSEKNVVYRDLKLENLMLDKDGHIKITDFGLCKEGIKDGATMKTFCGTPEYLAPEVLEDNDYGRAVDWWGLGVVMYEMMCGRLPFYNQDHEKLFELILMEEIRFPRTLGPEAKSLLSGLLKKDPKQRLGGGSEDAKEIMQHRFFAGIVWQHVYEKKLSPPFKPQVTSETDTRYFDEEFTAQMITITPPDQDDSMECVDSERRPHFPQFSYSASGTA [E17K] | increasing interaction strength |
